From article PMC8491194, “A cyclic peptide retards the proliferation of DU145 prostate cancer cells in vitro and in vivo through inhibition of FGFR2” (MedComm, 2020)

Tested on: phosphorylated FGFR2, AKT, and ERK1/2
Assay: Western blot of phosphorylated FGFR2, AKT and ERK1/2 in xenograft tumors
Assay type: in vivo, BALB/C‐nu/nu mice
Conditions: tumor tissue of xenograft mice

AZD4547 [reference compound]
phosphorylation of FGFR2, AKT, and ERK1/2: reduced
